Laboratory results taken from patent EP3411040B1, “SMALL MOLECULES FOR MOUSE SATELLITE CELL PROLIFERATION” (dated 2026).

Experiments:
satellite cells [1] = assay: Satellite cell proliferation screen and dose response (image-based cell count)
SMPs = assay: Proliferation of SMPs in combination with bFGF; conditions: compound refreshed daily then removed; fixation on Day 4
myoblast = conditions: differentiation media comprising 5% horse serum; FIG. 39
human satellite cells = conditions: 1nM, relative to the DMSO control; FIG. 38
satellite cells [2] = assay: LINCS library screen for satellite cell proliferation (Hoechst 33342 high content imaging); conditions: determined in dose response; Tg:Pax7-nGFP satellite cells, 4 days

CCN(CC)CCNC(=O)c1c(C)[nH]c(/C=C2\C(=O)Nc3ccc(Cl)cc32)c1C
Initial hit Conc. (satellite cells [1]; primary screen session one, hit = greater than one standard deviation over DMSO control): 1 µM

OC[C@H]1O[C@@H](n2cnc3c(NC4CCCC4)ncnc32)[C@H](O)[C@@H]1O
additive or synergistic action with bFGF on proliferation (SMPs): seen to synergize with bFGF in vitro
myoblast differentiation (myoblast): drive myoblast differentiation
in vitro satellite cell proliferation (satellite cells [1]; Example 2 screen of approximately 400 compounds, FIG. 35): found to increase in vitro satellite cell proliferation
proliferation levels versus negative control (satellite cells [1]; re-supplied compounds, dose response, 50 cells/well, DMSO 1±0.4): effective and produced proliferation levels much greater than that seen in the negative control

CC(C)(C)c1cc(NC(=O)Nc2ccc(-c3cn4c(n3)sc3cc(OCCN5CCOCC5)ccc34)cc2)no1
increase of human satellite cells (human satellite cells): more than 2 fold

CCOc1cc(N2CCC(O)CC2)ccc1Nc1ncc2c(n1)N(C)c1ccccc1C(=O)N2C
Optimal treatment concentration (satellite cells [2]): 3 µM
